Assay results published in ChEMBL document CHEMBL5042497, “Design, synthesis, and biological evaluation of carbamate derivatives of N-salicyloyl tryptamine as multifunctional agents for the treatment of Alzheimer's disease” (Eur J Med Chem, 2022).

Amino acid sequences for entries named in this document (tags omitted). A change or cut given only in a name is not applied to a line headed by its entry.
UniProt P22303: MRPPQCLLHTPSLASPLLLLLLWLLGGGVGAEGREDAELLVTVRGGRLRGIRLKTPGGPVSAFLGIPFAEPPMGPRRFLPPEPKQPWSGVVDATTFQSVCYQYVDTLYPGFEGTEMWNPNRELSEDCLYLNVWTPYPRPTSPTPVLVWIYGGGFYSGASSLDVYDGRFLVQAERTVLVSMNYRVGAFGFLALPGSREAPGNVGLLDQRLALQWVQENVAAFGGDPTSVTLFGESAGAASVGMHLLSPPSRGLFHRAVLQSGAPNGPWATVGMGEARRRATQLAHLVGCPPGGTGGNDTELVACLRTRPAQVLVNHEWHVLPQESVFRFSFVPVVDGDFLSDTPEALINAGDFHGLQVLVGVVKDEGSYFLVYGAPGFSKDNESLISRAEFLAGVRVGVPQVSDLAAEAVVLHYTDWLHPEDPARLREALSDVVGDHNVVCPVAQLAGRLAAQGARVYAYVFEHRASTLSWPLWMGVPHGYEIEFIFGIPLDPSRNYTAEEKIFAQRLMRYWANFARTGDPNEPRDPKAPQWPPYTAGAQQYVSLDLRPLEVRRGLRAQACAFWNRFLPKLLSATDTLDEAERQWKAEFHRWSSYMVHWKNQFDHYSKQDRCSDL

Target: Acetylcholinesterase (Homo sapiens, UniProt P22303)
Assay: Inhibition of AChE (unknown origin)

CC(C)c1ccc(NC(=O)Oc2ccc3c(c2)[C@]2(C)CCN(C)[C@@H]2N3C)cc1 [4-ISOPROPYLPHENSERINE]
IC50: 50 nM
